Experimental data: patent US7087623B2, “Thiazole and other heterocyclic ligands for mammalian dopamine, muscarinic and serotonin receptors and transporters, and methods of use thereof” (Sepracor Inc., priority 2001, dated 2006)

Sequences of proteins named here, by UniProt entry; tags and fusion partners are left off. Residues count along the entry.
UniProt P28335, 33-458: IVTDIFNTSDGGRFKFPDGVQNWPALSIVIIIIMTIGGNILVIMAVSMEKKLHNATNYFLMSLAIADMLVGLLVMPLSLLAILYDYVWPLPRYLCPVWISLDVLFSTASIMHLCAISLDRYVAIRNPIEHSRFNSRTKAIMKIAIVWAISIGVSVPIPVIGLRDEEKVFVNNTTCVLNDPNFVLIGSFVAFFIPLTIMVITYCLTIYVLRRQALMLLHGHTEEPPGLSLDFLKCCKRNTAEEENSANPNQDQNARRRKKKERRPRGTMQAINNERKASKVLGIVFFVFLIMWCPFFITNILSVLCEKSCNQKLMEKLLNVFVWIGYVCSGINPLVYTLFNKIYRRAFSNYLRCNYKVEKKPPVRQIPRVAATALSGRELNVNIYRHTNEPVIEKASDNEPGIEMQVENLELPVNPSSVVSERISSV

Target: T1, human serotonin 5-HT2C receptor (Homo sapiens, UniProt P28335)
T1 construct: expressed in transfected cells; host or cells: CHO-K1
Assay: Radioligand binding assay, human 5-HT2C receptors ([3H]Mesulergine)
Settings: value given in assay description

IC50: 0.74 nM | Ki: 0.39 nM
SMILES: CN1C[C@@H](NS(=O)(=O)N(C)C)C[C@@H]2c3cccc4c3c(cn4C)C[C@H]21 [[^3H]Mesulergine, Mesulergine, reference compound]
